Antibody variant affinities, Ab-95 light chain, assay 2

Reference: Engelhart et al. 2022, doi:10.1038/s41597-022-01779-4. File: FLAb, binding data.

Target: peptide PDVDLGDISGINAS, taken from heptad repeat 2 (HR2) of SARS-CoV-2 spike.

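Phage display of a naive human antibody library on the peptide gave the parent. The library (AAYL52) carries one to three amino acid substitutions per variant, with no insertions or deletions. The assay is AlphaSeq: two haploid yeast populations carry antibody and antigen on their surface. The frequency of each diploid, read from paired DNA barcodes, reflects how well the two displayed proteins bind. Each replicate has its own calibration line, from reference interactions of the BCL2 family. The assay was run in three technical replicates.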

Each scFv is VH, a 15-residue (Gly4Ser)3 linker, VL, as in the parent Ab-95, and differs from it in the CDRs of the light chain only.
VH: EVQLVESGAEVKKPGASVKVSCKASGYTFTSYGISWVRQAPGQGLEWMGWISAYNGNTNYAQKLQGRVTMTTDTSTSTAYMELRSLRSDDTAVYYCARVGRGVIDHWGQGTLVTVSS
VL: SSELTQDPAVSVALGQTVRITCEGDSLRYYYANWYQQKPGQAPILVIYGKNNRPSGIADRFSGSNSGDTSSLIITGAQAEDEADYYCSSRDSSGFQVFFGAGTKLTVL

Variants are written as CDR1, CDR2 and CDR3 of the light chain (limits as in the source). Parent: EGDSLRYYYAN, GKNNRPS, SSRDSSGFQVF.
The read-out is the apparent dissociation constant on a log10 scale (nM): the lower, the stronger.
A mean of the replicates is given; it leaves out those without a signal.
An entry "not detected" has no value in the source: the pair was not observed among the diploids in any replicate. This suggests poor binding but is not conclusive.
Parent in this assay: reference entry 2.31, copy in this library 2.25.
Background: pairings of library AAYL52 with three empty control strains gave a value in 28% of cases (median 3.91, 5th percentile 2.90). Values in that range, when seen in few replicates, are hard to tell from nonspecific mating. For each scFv, signals with the empty controls are counted beside the result.

mean log10 Kd (nM)	detected	signal with controls	CDR-L1	CDR-L2	CDR-L3
3.53	3/3	3/9	EGDSLRYYYAN	GKNNCPS	SLRDSSGFQVF
3.94	2/3	5/9	EYRSLRYYYAN	GKNNFPS	SSRDSSGFQVF
2.67	3/3	0/9	EGDSLRYGYAN	KKNNRPS	SSRPSSGFQVF
3.02	2/3	4/9	IGDSLRYYYAN	GKNNRPS	SSRDSSGLQVD
3.25	1/3	4/9	PGDMLRYYYAN	GKNNRVS	SSRDSSGFQVF
4.55	1/3	2/9	WPDSLRYYYAN	GKNNRPS	SSRDSSGQQVF
4.78	3/3	5/9	EGDSLRYYWAN	GKNLRPS	SSRDSSGCQVF
2.02	3/3	5/9	EGDSLRYTKAN	GKNNRPS	SSRDSSGFDVF
0.59	3/3	3/9	EGDSLRYYMAN	GDNLRPS	SSRDSSGFQVF
not detected	0/3	0/9	EGDSERYYYAN	GKNNFPC	SSRDSSGFQVF
3.59	3/3	1/9	EGDSLQYYYAN	GKNNRPS	YSTDSSGFQVF
4.20	2/3	1/9	EGDSLRYYYAN	MKNQRPS	SSRDSSGWQVF
2.25	3/3	2/9	EGDSLRYYYAG	GKNSRPT	SSRDSSGFQVF
not detected	0/3	3/9	EGDSLRYYYAQ	GKNNRPS	SSVDSSGFQVG
3.87	2/3	5/9	EGDSLRYYYAN	LKNNRPS	FSRDVSGFQVF
4.12	3/3	6/9	EGDVLRYYYAN	GKNNRPS	SSRDSSPFYVF
3.62	3/3	4/9	EGDSLRYYKAN	GKNNRVS	SSVDSSGFQVF
4.61	1/3	3/9	EGVSLRYYYAN	GKNNRPS	SSKISSGFQVF
1.58	3/3	6/9	EGDSLRYNYAN	GKNNRPS	SSRQSSGFQNF
4.19	1/3	3/9	EGDSLRYYQAN	GKMNRPS	SSRDSFGFQVF
not detected	0/3	6/9	EGMSLDYYYAN	KKNNRPS	SSRDSSGFQVF
1.64	3/3	2/9	EGDSLRYHYAN	GKNNRPS	TSRDSSGFQVF
3.12	3/3	4/9	EGDSLRYYYAN	GKNNRPC	FSRDSSGFQVF
1.99	3/3	0/9	EGDSLRYYTAN	GKNNRPS	MSRDSSGFQVF
2.03	3/3	5/9	EGQSLRSYYAN	GKNNRPS	SSRDSSGFQVH
2.89	3/3	1/9	EGDSLRYYYAN	GLNNRPS	SSRDTSGFQVF
2.52	3/3	2/9	QGDSLRYYYAN	GKNNRPI	SQRDSSGFQVF
2.79	2/3	3/9	EGDSLRYYYAN	GKGNRPS	SSIDSSGFCVF
4.01	2/3	4/9	EGDSLRYYYAF	GKKNRPS	SSRDSSAFQVF
3.79	3/3	1/9	WGDSLRYYYAN	GKNRRPS	SSRDSSGFQVF
3.41	3/3	3/9	IGDSLRYYYAN	GKNNRWS	SSNDSSGFQVF
4.29	2/3	0/9	EGDSLRYYYAN	GKNNRYT	SQRDSSGFQVF
not detected	0/3	4/9	EGDSLRYYYDN	GKNNRPS	SSRKSFGFQVF
3.56	3/3	1/9	EGDSLRYYYAN	GKNNLPC	SSRDHSGFQVF
3.07	3/3	2/9	EGVSLRYYYAN	GKNNRPS	SSRDASGFQVF
1.03	3/3	3/9	EGDHLRYTYAN	GKNNRPS	SSRDISGFQVF
not detected	0/3	1/9	EGDSLRYYYAG	GGNNRPS	SSRDSCGFQVF
3.97	2/3	3/9	EGTQLRYYYAN	GKNNRPS	SSRDSSGFPVF
2.48	3/3	2/9	EGDSLRYTYAN	GKNNRCS	SSRISSGFQVF
3.58	3/3	2/9	EGDHLRYYYGN	GENNRPS	SSRDSSGFQVF
1.78	3/3	5/9	HGLSLRSYYAN	GKNNRPS	SSRDSSGFQVF
3.75	1/3	4/9	EGDSLRLYYAN	GKNNRPS	SRIDSSGFQVF
2.03	3/3	3/9	EGDSLRYVYAN	GKNNHPS	SCRDSSGFQVF
3.75	3/3	4/9	VGDSLRYYYAN	NKNNAPS	SSRDSSGFQVF
2.97	2/3	1/9	EGDSLRYYYAN	EKNNRPS	SSRDSSGTQVA
3.70	1/3	1/9	EGDSLRYYYMN	GKNNRPS	MSRDSRGFQVF
3.88	2/3	5/9	EGKSLRYYYAN	GKNNRPS	SSRDSTPFQVF
3.45	3/3	2/9	EGDSLRYYYAN	GKNNRCS	SSTDSSGFQVF
3.09	3/3	3/9	EGKSLRYYYAN	GHNNRPS	SSDDSSGFQVF
not detected	0/3	3/9	EGDSLRYYYAN	RKNNPPS	STRDSSGFQVF
not detected	0/3	3/9	EGDKLRYYYAN	GWNNRPS	SGRDSSGFQVF
3.78	2/3	4/9	EGDSLRYLYCN	GKNNNPS	SSRDSSGFQVF
2.63	3/3	8/9	EGDSLRYPYAN	GKNNRNS	SSRDASGFQVF
2.31	3/3	3/9	EGDSLRYYYAN	GKNNRPS	SSRCSSWFQWF
2.26	3/3	3/9	EGDSLRYYYAN	GKNNRPS	SDRDGSPFQVF
not detected	0/3	2/9	EGDSLRYYYFN	GKNNRPS	SPRDSSGFVVF
2.81	1/3	0/9	EGDSLRFYYAN	GKNNRPS	SSRNSSGFSVF
3.74	2/3	3/9	EGDRLQYYYAN	GKNNRPS	SSRASSGFQVF

8 of these entries, quoted again:

| CDR-L1 | CDR-L2 | CDR-L3 | mean log10 Kd (nM) | detected | signal with controls |
|---|---|---|---|---|---|
| EGDSLRYYYAN | GKNNRPC | FSRDSSGFQVF | 3.12 | 3/3 | 4/9 |
| PGDMLRYYYAN | GKNNRVS | SSRDSSGFQVF | 3.25 | 1/3 | 4/9 |
| EGDSLRFYYAN | GKNNRPS | SSRNSSGFSVF | 2.81 | 1/3 | 0/9 |
| EGDSLRYYMAN | GDNLRPS | SSRDSSGFQVF | 0.59 | 3/3 | 3/9 |
| QGDSLRYYYAN | GKNNRPI | SQRDSSGFQVF | 2.52 | 3/3 | 2/9 |
| EGDSLRYYYAN | MKNQRPS | SSRDSSGWQVF | 4.20 | 2/3 | 1/9 |
| EGDSLRYNYAN | GKNNRPS | SSRQSSGFQNF | 1.58 | 3/3 | 6/9 |
| EGDSLRYYYMN | GKNNRPS | MSRDSRGFQVF | 3.70 | 1/3 | 1/9 |